{
  "source": "paper PMC2662459",
  "about": "“Developmental Toxicity of Ochratoxin A in Rat Embryo Midbrain Micromass Cultures” (International Journal of Molecular Sciences, 2008)",
  "key": {"[1]": {"system": "rat embryo midbrain micromass cultures (neurospheres)", "test": "Differentiation, computerised image analysis of haematoxylin stained neurospheres", "type": "cell-based", "method": "(§1) This study was carried out according to compliance with bioethical principles. Wistar albino rats were housed under standard laboratory condition of lighting (12 h dark/12 h light), temperature (20 ± 2 °C), and relative humidity (50 – 60%) with free access to commercial feed (Murigan) and tap water. Animals (10–12 week old) were mated overnight and the appearance of a vaginal plug on the next morning was considered as day one of pregnancy. Rat embryos were collected on day 13 of gestation. Procedures were followed essentially as described in INVITTOX Protocol No. 114 [23].\nTissues were pooled from a number of embryos, washed and incubated for 20 min at 37 °C in sequence in Earle’s balanced salt solution calcium and magnesium-free (CMF, GIBCO), and 1% trypsin (GIBCO) in CMF. Then the tissues were washed in CMF and culture medium (Ham’s F-12 nutrient mixture: foetal bovine serum: L-glutamine: penicillin/streptomycin - 88:10:1:1 v/v – all materials were from GIBCO). A single cell suspension was ensured by mechanical dissociation followed by passing the suspension through sterile 10 μm nylon mesh. Viable cells density was assessed by trypan blue exclusion assay using Bürker’s haemocytometer.\nHigh-cell-density cultures were set up carefully as a 5–10 μL drop in the centre of each well of 96-well fibronectin coated microplate (BECTON DICKINSON), so that number of cells /well was 5 × 10^4. After 2 h incubation (37°C, 5% CO2) the cells were exposed to different concentrations of tested compounds and incubated five days. Then dual assessment i.e. cytotoxicity and an impact of tested compound on cells differentiation (embryotoxicity) were done in the same cultures.\nAfter removing the eluted solution, the cells were fixed in 10% formaldehyde for 20 min and stained (approximately 10 s) with Gill’s haematoxylin. Morphometric analysis was performed on digitised images of cells taken with Nikon SMZ stereoscopic microscope linked to Panasonic CCD BP-KR 222E colour camera. The number of neurospheres (containing differentiated neural cells) was counted and their total and individual area was measured using computer image analysis software (LUCIA Measurement System).\nThe values of drug concentration, which inhibited cells viability by 50% (IC50) and reduced differentiation by 50% (ID50) when compared to unexposed control cells, were calculated according to Hill’s equation (sigmoidal model of concentration-response curve). Statistically significant differences between mean values obtained in immunoenzymatic analysis were determined based on analysis of variance (ANOVA) followed by Tukey – Kramer post-hoc test. Values of P < 0.05 were considered as statistically significant. All calculations were done using LSW Data Analysis Toolbox ver. 1.1.1. (MDL® Information Systems, Inc.) in Microsoft Excel 2000 spreadsheet and Kyplot software (Koichi Yoshioka, version 2.0 beta 4). In order to classify embryotoxic potential the mean inhibition concentrations for differentiation (ID50) of test chemical was used and the biostatistically based prediction model (PM) was applied. It is based on the linear discriminate analysis of three functions: function I: 6.65 × log (ID50)–9.49; function II: 6.16 × log (ID50)–8.29; function III: –1.31 × log (ID50)–1.42. The function providing the highest value was used to determine the class of embryotoxicity (class 1 – non-embryotoxic, class 2 – weakly embryotoxic, class 3 – strongly embryotoxic)."}, "[2]": {"system": "MAP2 expression (neurons in late stage of development)", "test": "Differentiation, immunoenzymatic determination of MAP2 expression", "type": "cell-based, rat", "settings": "NRU IC50 over ID50", "method": "as §1\n(§2) Tissues were pooled from a number of embryos, washed and incubated for 20 min at 37 °C in sequence in Earle’s balanced salt solution calcium and magnesium-free (CMF, GIBCO), and 1% trypsin (GIBCO) in CMF. […] Viable cells density was assessed by trypan blue exclusion assay using Bürker’s haemocytometer. […]\n(§3) To indicate the target cells damaged, immunofluorescent (IF) and immunoenzymatic (IE) staining was performed. […] IF staining fluorescence was examined using a fluorescent microscope (λ = 490 nm). In IE staining, a substrate (3,3’,5,5’-tetramethylbenzidine, SIGMA) was added (100 μL/well) and reaction was evaluated for 30 min at room temperature. […] The expression level of particular proteins was determined by measuring optical density at 450 nm. […]"}, "[3]": {"system": "GFAP expression (astrocytes)", "test": "Differentiation, immunoenzymatic determination of GFAP expression", "type": "cell-based, rat", "settings": "NRU IC50 over ID50", "method": "as §1, §2, §3"}, "[4]": {"settings": "five days exposure, computerised image analysis, mean±SD from 3 independent experiments"}},
  "data": [
    {"smiles": "O=c1[nH]cc(F)c(=O)[nH]1", "note": "[5-FU, 5-fluorouracil, reference compound]", "values": [
      {"measurement": "IC50/ID50 ratio: Number of neurospheres", "setting": "[1]", "value": 0.9},
      {"measurement": "IC50/ID50 ratio: Particular area of neurospheres", "setting": "[1]", "value": 0.7},
      {"measurement": "IC50/ID50 ratio: Total area of neurospheres", "setting": "[1]", "value": 0.9},
      {"measurement": "Inhibition of differentiation, ID50: Number of neurospheres", "setting": "[1]; [4]", "value": "0.17 ± 0.016", "unit": "µg/mL"},
      {"measurement": "Inhibition of differentiation, ID50: Particular area of neurospheres", "setting": "[1]; [4]", "value": "0.21 ± 0.015", "unit": "µg/mL"},
      {"measurement": "Inhibition of differentiation, ID50: Total area of neurospheres", "setting": "[1]; [4]", "value": "0.16 ± 0.010", "unit": "µg/mL"},
      {"measurement": "IC50/ID50 ratio: MAP2", "setting": "[2]", "value": 0.9},
      {"measurement": "IC50/ID50 ratio: GFAP", "setting": "[3]", "value": 0.8}
    ]}
  ]
}
